Publication PMC10252837, “A Novel Time-Resolved Fluorescence Resonance Energy Transfer Assay for the Discovery of Small-Molecule Inhibitors of HIV-1 Tat-Regulated Transcription” (International Journal of Molecular Sciences, 2023)

Tested on: HIV-1NL4-3
Test: HIV-1 infectivity in TZM-bl cells (LTR-driven F-Luc)
Type: cell-based
Description: (A) (Upper panel) Doxycycline (Dox)-inducible Tat-expressing bl-DTR cells cultured in 96-well plates treated with two-fold serial dilutions of each compound in the presence of Dox (50 ng/mL). At 24 h after treatment, the activity of firefly luciferase (F-Luc), indicating Tat activity, was determined as described in the Materials and Methods section. (Bottom panel) TZM-bl cells were treated with two-fold serial dilutions of the indicated compound and then infected with the HIV-1NL4-3 strain at a multiplicity of infection (MOI) of 1. At 24 h after infection, the viral infectivity and cell viability were determined as described in the Materials and Methods section. […] At 24 h after treatment, LTR promoter activity was determined via a Bright-Glo Luciferase Assay Kit. […] The mobility of biotinylated TAR RNA was detected by chemiluminescence.
To determine the inhibitory effect of hit compounds on HIV-1 infection, we used TZM-bl cells (also referred to as JC53BL-13), which express HIV-1 receptors and contain the LTR-driven F-Luc gene controlled by HIV-1 infection, as described previously but with some minor modifications. […] At 24 h after infection, the inhibitory effect of the hit compounds on infectivity was determined using the Bright-Glo Luciferase Assay Kit (Promega). The dose–response data are expressed as a relative percentage compared to the DMSO control (vehicle). […]

CN1C/C=C/CCOc2cccc(c2)-c2ccnc(n2)Nc2cccc(c2)C1 [Hit 460-G06, (E)-6-methyl-12-oxa-3,6-diaza-2(4,2)-pyrimidine-1,4(1,3)-dibenzenacyclododecaphan-8-ene]
SI (selectivity index): 380.000
